This is a selection; strong and weak results do not stand in their true shares. Activity calls are given as the source filed them. Calls follow the shape of the dose curve; as a rule, active = well fitted inhibition curve with a large enough effect; inconclusive = small, poorly fitted or top-dose-only effect; inactive = no such curve, though single readings can be large or run the other way.
% is scaled to controls: 0 for no effect and ±100 for the full control effect.

By UniProt entry, the sequences of proteins in these tests, tags left out. Where a name states a change or a piece, a line headed by the entry shows the natural chain unless it says otherwise.
UniProt Q8WZA2: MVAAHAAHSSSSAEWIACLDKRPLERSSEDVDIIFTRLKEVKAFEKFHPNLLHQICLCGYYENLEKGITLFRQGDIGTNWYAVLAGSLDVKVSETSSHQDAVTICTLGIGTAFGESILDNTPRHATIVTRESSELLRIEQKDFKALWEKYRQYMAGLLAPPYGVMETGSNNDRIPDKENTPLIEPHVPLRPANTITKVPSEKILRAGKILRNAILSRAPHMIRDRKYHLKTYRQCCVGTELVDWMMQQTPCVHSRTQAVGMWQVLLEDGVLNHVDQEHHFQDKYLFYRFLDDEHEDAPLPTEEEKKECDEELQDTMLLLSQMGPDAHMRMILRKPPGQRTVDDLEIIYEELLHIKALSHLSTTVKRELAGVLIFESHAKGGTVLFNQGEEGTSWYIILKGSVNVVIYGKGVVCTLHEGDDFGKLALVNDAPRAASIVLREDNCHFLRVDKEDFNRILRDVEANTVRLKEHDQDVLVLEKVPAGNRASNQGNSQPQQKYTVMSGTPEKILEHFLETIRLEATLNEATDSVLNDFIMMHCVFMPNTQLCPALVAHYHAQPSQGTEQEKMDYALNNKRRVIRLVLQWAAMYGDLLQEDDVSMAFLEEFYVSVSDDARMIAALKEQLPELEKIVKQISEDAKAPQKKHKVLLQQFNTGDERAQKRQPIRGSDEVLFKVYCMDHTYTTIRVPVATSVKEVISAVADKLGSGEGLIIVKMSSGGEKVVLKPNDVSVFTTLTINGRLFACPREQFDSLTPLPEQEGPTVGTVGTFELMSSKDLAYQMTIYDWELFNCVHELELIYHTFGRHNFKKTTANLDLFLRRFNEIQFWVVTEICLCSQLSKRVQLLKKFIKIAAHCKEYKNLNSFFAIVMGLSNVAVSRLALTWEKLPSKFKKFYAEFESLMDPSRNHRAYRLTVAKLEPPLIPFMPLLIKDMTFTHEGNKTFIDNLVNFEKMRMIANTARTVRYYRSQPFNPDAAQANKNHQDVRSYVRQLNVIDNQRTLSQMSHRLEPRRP

This test addresses Rap guanine nucleotide exchange factor 4 (Homo sapiens) (UniProt Q8WZA2). The experiment in a line: qHTS for Antagonist of cAMP-regulated guanine nucleotide exchange factor 2 (EPAC2): primary screen. Also: nearly all actives have a fitted effect of over 45% in size. Conditions: EPAC2 GEF exchange of Rap1B-BODIPY-GDP, fluorescence; at 114 µM (top of the series) unless noted.
On to `O=C(OC1CN2CCC1CC2)c1ccc(Cl)cc1` (configuration not stated), for which the activity, negative = inhibition is inactive: -5.94%.

Take `O=[As](O)(c1cccc(O)c1)c1cccc(O)c1`: the activity, negative = inhibition was inactive: -1.55%.

Take `Cc1cccc(OCC(=O)OC2CN3CCC2CC3)c1` (configuration not stated): the activity, negative = inhibition is inactive: -21.1%.

Regarding `COc1ccccc1CNC(=O)COC(=O)C(O)(c1ccccc1)c1ccccc1`, the activity, negative = inhibition was inactive: 1.87%.

For the molecule `CC1(CBr)Cn2c(nc3ccccc3c2=O)S1` (configuration not stated), the activity, negative = inhibition is inactive: -4.47%.

In the case of `CN(C(=O)Cc1ccc(Cl)c(Cl)c1)[C@@H]1CCCC[C@H]1N1CCCC1`, the activity, negative = inhibition was inactive: -16.7%.

Take `CC(C)/C=N\N=C(\N)N[N+](=O)[O-]`: the activity, negative = inhibition is inactive: 30.2%.

On to `CN(CCCl)Cc1cc(Cl)c(NC2=NCCN2)c(Cl)c1`, for which the activity, negative = inhibition is inactive: -11%.

On to `CCOP(=O)(Nc1ccc(C)cn1)OCC`, for which the activity, negative = inhibition was inactive: 0.762%.

`CCOP(=O)(NC(=NC(C)c1ccccc1)NC(C)c1ccccc1)OCC` (configuration not stated): the activity, negative = inhibition was inactive: 6.41%.

For the molecule `CCC1=CC2Cc3nc4ccc(Cl)cc4c(N)c3C(C1)C2` (configuration not stated), the activity, negative = inhibition is inactive: -10.3%.

Regarding `O=P1(Nc2ccccn2)COc2ccccc2OC1`, the activity, negative = inhibition was inactive: 4.4%.

In the case of `CC(C)(C)C(=O)NC(Sc1ncccn1)C(Cl)(Cl)Cl` (configuration not stated), the activity, negative = inhibition is inactive: -1.12%.

On to `Clc1n[nH]nc1-c1nn[nH][15n]1`, for which the activity, negative = inhibition is inactive: -0.204%.

As to `O=P1(N(CCCl)CCCl)NCCC(C(F)(F)F)O1` (configuration not stated), the activity, negative = inhibition is inactive: 8.45%.

Take `O=P1(Nc2ncccn2)COc2ccccc2OC1`: the activity, negative = inhibition is inactive: 4.52%.

Take `Cc1ccc(S(=O)(=O)N(CCCN)CCCc2c(C)nc(N)[nH]c2=O)cc1`: the activity, negative = inhibition is inactive: -24.2%.

`NS(=O)(=O)c1cccc(NC(=O)COC(=O)C(O)(c2ccccc2)c2ccccc2)c1`: the activity, negative = inhibition was inactive: -6.8%.

On to `O=P1(Nc2ccc(Br)cn2)COc2ccccc2OC1`, for which the activity, negative = inhibition is inactive: 15.5%.

On to `Cc1ccc(OCC(=O)OC2CN3CCC2CC3)cc1` (configuration not stated), for which the activity, negative = inhibition was inactive: 18.4%.

In the case of `O=[As](O)(c1cccs1)c1cccs1`, the activity, negative = inhibition was inactive: 9.95%.

As to `Nc1cccc([As](=O)(O)c2ccccc2)c1`, the activity, negative = inhibition is inactive: 9.31%.

Consider `Cc1ccc(C(=O)OC2CN3CCC2CC3)cc1` (configuration not stated), for which the activity, negative = inhibition was inactive: -4.79%.

In the case of `Cc1nn(-c2ccccc2)c2c1P(=O)(N1CCOCC1)N(C)C(c1ccccc1)=N2` (configuration not stated), the activity, negative = inhibition was inactive: -1.18%.

`CCCC1OP(=O)(Nc2ccccc2)OCC1CC` (configuration not stated): the activity, negative = inhibition was inactive: 1.95%.

Take `O=C(/C=C/c1ccccc1)OC1CN2CCC1CC2` (configuration not stated): the activity, negative = inhibition was inactive: 2.39%.

In the case of `CN(C)C1(CNC(=O)c2ccc(S(C)(=O)=O)cc2)CCCCC1`, the activity, negative = inhibition was inactive: -1.82%.

Turning to `CCOC(=O)Nc1cccc([As](=O)(O)O)c1`, the activity, negative = inhibition was inactive: -1.93%.

Turning to `O=[N+]([O-])c1ccc(Nc2ccc(Oc3ccc([N+](=O)[O-])cc3[N+](=O)[O-])cc2)c([N+](=O)[O-])c1`, the activity, negative = inhibition was inactive: 3.69%.

For the molecule `Cc1cc(SC(NC=O)C(Cl)(Cl)Cl)ncn1` (configuration not stated), the activity, negative = inhibition is inactive: -11.2%.

`O=P(Nc1ccccn1)(c1cccc2ccccc12)c1cccc2ccccc12`: the activity, negative = inhibition was inactive: -25.5%.

Regarding `CC1CCNP(=O)(N(CCCl)CCCl)O1` (configuration not stated), the activity, negative = inhibition was inactive: -0.577%.

As for `O=C(O)C(O)c1ccc(N(CCCl)CCCl)cc1` (configuration not stated), the activity, negative = inhibition is inactive: 2.38%.

Turning to `CCOC(=O)Nc1ccc([As](=O)(O)O)c(O)c1`, the activity, negative = inhibition was inactive: -1.98%.

On to `Cc1cc(SC(NC(=O)c2ccccc2)C(Cl)(Cl)Cl)nc(C(C)C)n1` (configuration not stated), for which the activity, negative = inhibition was inactive: -4.57%.

As for `CCCCOc1ccc(C(=O)NCC2(N3CCCCC3)CCCCC2)cc1OC`, the activity, negative = inhibition is inactive: 15.2%.

For `COP(=O)(OC)N1CC1c1ccccc1` (configuration not stated), the activity, negative = inhibition is inactive: 8.43%.

As for `CCOC(=O)c1ccc(NC(=O)C(C)(CCl)SC)cc1` (configuration not stated), the activity, negative = inhibition is inactive: -4.7%.

For `CSc1ccc(Nc2c([N+](=O)[O-])cc([N+](=O)[O-])cc2[N+](=O)[O-])cc1`, the activity, negative = inhibition was inactive: -14.5%.

Consider `O=C(OC1CN2CCC1CC2)c1cccc([N+](=O)[O-])c1` (configuration not stated), for which the activity, negative = inhibition is inactive: -4.35%.

As for `CCC(C)N(CC(C)C)C(=S)SC(NC(C)=O)C(Cl)(Cl)Cl` (configuration not stated), the activity, negative = inhibition was inactive: -1.92%.

Take `COC(=O)C1(C)COP(=O)(N2CCCC2)OC1` (configuration not stated): the activity, negative = inhibition was inactive: 11.7%.

For the molecule `COP1(=S)c2c(C)nn(CCC#N)c2N=C(c2ccc(F)cc2)N1C` (configuration not stated), the activity, negative = inhibition is inactive: -5.14%.

Consider `O=C(Nc1ccncc1[N+](=O)[O-])c1ccc([N+](=O)[O-])cc1[N+](=O)[O-]`, for which the activity, negative = inhibition was inactive: 5.74%.

With `O=C(COc1ccccc1)OC1CN2CCC1CC2` (configuration not stated), the activity, negative = inhibition was inactive: 12%.

As to `O=C(O)C(=O)c1ccc(N(CCCl)CCCl)cc1`, the activity, negative = inhibition was inactive: 1.7%.

Regarding `COc1ccc(N/C(=N/P(=O)(N2CCOCC2)N2CCOCC2)N2CCOCC2)cc1`, the activity, negative = inhibition was inactive: -3.49%.

In the case of `O=[N+]([O-])c1cc(Oc2ccc([N+](=O)[O-])cc2C(F)(F)F)cc([N+](=O)[O-])c1`, the activity, negative = inhibition was inactive: -2.98%.

For `Cc1cc(=O)[nH]c(N[N+](=O)[O-])n1`, the activity, negative = inhibition is inactive: -6.6%.

As for `O=C(OC1CN2CCC1CC2)C12CC3CC(CC(C3)C1)C2` (configuration not stated), the activity, negative = inhibition was inactive: 4.14%.

For the molecule `Cc1c2c(nc3ccccc13)SC(C(Cl)Cl)C2` (configuration not stated), the activity, negative = inhibition is inactive: -17.8% [at 57.1 µM].

With `COc1cc(I)ccc1[As](=O)(O)O`, the activity, negative = inhibition was inactive: 4.05%.

As to `COc1ccc2nc(NP(=O)(c3ccccc3)c3ccccc3)sc2c1`, the activity, negative = inhibition is inactive: -3.67%.

On to `O=P1(N(CCCl)CCCl)Nc2ccccc2N1`, for which the activity, negative = inhibition was inactive: 11.2%.

Regarding `O=P1(N(CCCl)CCCl)OCCCN1CCCl` (configuration not stated), the activity, negative = inhibition was inactive: -0.39%.

In the case of `COC(=O)C1(C)COP(=O)(N2CCCCCC2)OC1` (configuration not stated), the activity, negative = inhibition is inactive: 9.37%.

For the molecule `ClCCSc1nnc(-c2cccnc2)o1`, the activity, negative = inhibition is inactive: 11.1%.

As to `O=[N+]([O-])c1cc([N+](=O)[O-])c(-c2ccn[nH]2)s1`, the activity, negative = inhibition was inactive: -11.2%.

`CCN(CC)C(=S)SC(NC=O)C(Cl)(Cl)Cl` (configuration not stated): the activity, negative = inhibition was inactive: 5.93%.

As for `O=C(OC1CN2CCC1CC2)c1cccc2[nH]cnc12` (configuration not stated), the activity, negative = inhibition is inactive: -0.65%.

Regarding `CC(C)NC(=O)NP(=O)(Oc1ccccc1)Oc1ccccc1`, the activity, negative = inhibition was inactive: -6.76%.

Take `COc1cc(C(=O)NCC2(N3CCOCC3)CCCCC2)ccc1OCC(C)C`: the activity, negative = inhibition is inactive: 3.46%.

As for `C[As](=O)(O)c1cccc(C(=O)O)c1`, the activity, negative = inhibition was inactive: 7.87%.

As for `O=[As](O)(c1ccc(O)cc1)c1ccccc1O`, the activity, negative = inhibition was inactive: 0.36%.

In the case of `Cc1ccc2nc3c(c(C)c2c1)CC(C(Cl)Cl)S3` (configuration not stated), the activity, negative = inhibition is inactive: 5.26%.

For the molecule `Cc1ccc(OP(=O)(Nc2ccc([N+](=O)[O-])cn2)Oc2ccc(C)cc2)cc1`, the activity, negative = inhibition is inactive: 23.5%.

Take `[N-]=[N+]=NC1CCCCC1NC(=O)c1cc([N+](=O)[O-])cc([N+](=O)[O-])c1` (configuration not stated): the activity, negative = inhibition is inactive: -27.8%.
